Read-outs that look alike come from different tables or passages of the source.
Legend:
[1] = target: EGFR D19TMCS (del19/T790M/C797S) (Homo sapiens, UniProt P00533, C797S/DEL746-750/T790M); assay: Biochemical EGFR kinase inhibition (Lance Ultra TR-FRET), del19/T790M/C797S; conditions: read-out: EGFR D19TMCS IC50
[2] = target: EGFR LRTMCS (L858R/T790M/C797S) (Homo sapiens, UniProt P00533, C797S/L858R/T790M); assay: Biochemical EGFR kinase inhibition (Lance Ultra TR-FRET), L858R/T790M/C797S; conditions: read-out: EGFR LRTMCS IC50
[3] = target: EGFR D19CS (del19/C797S) (Homo sapiens, UniProt P00533, C797S/DEL746-750); assay: Biochemical EGFR kinase inhibition (Lance Ultra TR-FRET), del19/C797S; conditions: read-out: EGFR D19CS IC50
[4] = target: EGFR LRCS (L858R/C797S) (Homo sapiens, UniProt P00533, C797S/L858R); assay: Biochemical EGFR kinase inhibition (Lance Ultra TR-FRET), L858R/C797S; conditions: read-out: EGFR LRCS IC50
[5] = target: EGFR WT (Homo sapiens, UniProt P00533); assay: Biochemical EGFR kinase inhibition (Lance Ultra TR-FRET), wildtype; conditions: read-out: EGFR WT IC50; ATP at Km
[6] = target: JAK2 (Homo sapiens, UniProt O60674); assay: Kinase selectivity (Lance Ultra TR-FRET), JAK2; conditions: read-out: JAK2 IC50
[7] = target: LCK (Homo sapiens, UniProt P06239); assay: Kinase selectivity (Lance Ultra TR-FRET), LCK; conditions: read-out: LCK IC50
[8] = target: FLT3 (Homo sapiens, UniProt P36888); assay: Kinase selectivity (Lance Ultra TR-FRET), FLT3; conditions: read-out: FLT3 IC50
[9] = target: MAP4K4 (HGK) (Homo sapiens, UniProt O95819); assay: Kinase selectivity (Lance Ultra TR-FRET), MAP4K4 (HGK); conditions: read-out: MAP4K4 (HGK) IC50
[10] = target: IRAK4 (Homo sapiens, UniProt Q9NWZ3); assay: Kinase selectivity (Lance Ultra TR-FRET), IRAK4; conditions: read-out: IRAK4 IC50

The chains behind the UniProt entries cited, without tags or fusion partners. Where a name states a change or a piece, a line headed by the entry shows the natural chain unless it says otherwise. A line that says so, or that is headed by a name, gives the form on record, which may keep a tag or linker. Residues count along the entry.
UniProt P00533, 25-1210 C797S/L858R limits assumed: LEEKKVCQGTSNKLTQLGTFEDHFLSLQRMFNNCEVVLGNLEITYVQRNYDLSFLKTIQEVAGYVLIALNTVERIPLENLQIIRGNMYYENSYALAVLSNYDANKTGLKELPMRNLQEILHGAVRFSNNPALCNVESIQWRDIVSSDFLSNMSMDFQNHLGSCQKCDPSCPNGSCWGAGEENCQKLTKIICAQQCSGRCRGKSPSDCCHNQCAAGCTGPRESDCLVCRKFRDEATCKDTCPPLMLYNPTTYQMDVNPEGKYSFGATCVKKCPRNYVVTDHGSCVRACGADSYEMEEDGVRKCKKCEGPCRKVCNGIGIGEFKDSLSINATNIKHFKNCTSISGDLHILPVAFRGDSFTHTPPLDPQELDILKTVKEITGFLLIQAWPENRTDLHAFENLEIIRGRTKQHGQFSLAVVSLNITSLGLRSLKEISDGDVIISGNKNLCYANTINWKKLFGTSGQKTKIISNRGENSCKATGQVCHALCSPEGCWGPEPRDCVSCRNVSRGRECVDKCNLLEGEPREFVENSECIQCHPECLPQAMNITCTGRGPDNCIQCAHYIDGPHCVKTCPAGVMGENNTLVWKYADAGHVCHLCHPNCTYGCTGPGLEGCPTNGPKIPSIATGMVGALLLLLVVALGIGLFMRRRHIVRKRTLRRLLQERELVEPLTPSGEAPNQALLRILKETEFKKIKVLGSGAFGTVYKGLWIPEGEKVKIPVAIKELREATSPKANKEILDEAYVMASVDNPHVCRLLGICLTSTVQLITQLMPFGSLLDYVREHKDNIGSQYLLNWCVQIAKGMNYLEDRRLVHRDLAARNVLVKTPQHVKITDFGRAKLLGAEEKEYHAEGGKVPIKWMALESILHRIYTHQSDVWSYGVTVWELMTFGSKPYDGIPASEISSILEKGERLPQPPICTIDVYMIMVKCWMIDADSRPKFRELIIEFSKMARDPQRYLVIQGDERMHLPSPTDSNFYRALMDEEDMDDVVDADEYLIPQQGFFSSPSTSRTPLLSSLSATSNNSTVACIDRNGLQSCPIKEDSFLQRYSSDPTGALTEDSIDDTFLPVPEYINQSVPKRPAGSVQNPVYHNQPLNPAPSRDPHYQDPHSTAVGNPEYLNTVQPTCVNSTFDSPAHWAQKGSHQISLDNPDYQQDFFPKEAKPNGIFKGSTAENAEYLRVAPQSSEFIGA
UniProt P00533, 25-1210 T790M/C797S/L858R limits assumed: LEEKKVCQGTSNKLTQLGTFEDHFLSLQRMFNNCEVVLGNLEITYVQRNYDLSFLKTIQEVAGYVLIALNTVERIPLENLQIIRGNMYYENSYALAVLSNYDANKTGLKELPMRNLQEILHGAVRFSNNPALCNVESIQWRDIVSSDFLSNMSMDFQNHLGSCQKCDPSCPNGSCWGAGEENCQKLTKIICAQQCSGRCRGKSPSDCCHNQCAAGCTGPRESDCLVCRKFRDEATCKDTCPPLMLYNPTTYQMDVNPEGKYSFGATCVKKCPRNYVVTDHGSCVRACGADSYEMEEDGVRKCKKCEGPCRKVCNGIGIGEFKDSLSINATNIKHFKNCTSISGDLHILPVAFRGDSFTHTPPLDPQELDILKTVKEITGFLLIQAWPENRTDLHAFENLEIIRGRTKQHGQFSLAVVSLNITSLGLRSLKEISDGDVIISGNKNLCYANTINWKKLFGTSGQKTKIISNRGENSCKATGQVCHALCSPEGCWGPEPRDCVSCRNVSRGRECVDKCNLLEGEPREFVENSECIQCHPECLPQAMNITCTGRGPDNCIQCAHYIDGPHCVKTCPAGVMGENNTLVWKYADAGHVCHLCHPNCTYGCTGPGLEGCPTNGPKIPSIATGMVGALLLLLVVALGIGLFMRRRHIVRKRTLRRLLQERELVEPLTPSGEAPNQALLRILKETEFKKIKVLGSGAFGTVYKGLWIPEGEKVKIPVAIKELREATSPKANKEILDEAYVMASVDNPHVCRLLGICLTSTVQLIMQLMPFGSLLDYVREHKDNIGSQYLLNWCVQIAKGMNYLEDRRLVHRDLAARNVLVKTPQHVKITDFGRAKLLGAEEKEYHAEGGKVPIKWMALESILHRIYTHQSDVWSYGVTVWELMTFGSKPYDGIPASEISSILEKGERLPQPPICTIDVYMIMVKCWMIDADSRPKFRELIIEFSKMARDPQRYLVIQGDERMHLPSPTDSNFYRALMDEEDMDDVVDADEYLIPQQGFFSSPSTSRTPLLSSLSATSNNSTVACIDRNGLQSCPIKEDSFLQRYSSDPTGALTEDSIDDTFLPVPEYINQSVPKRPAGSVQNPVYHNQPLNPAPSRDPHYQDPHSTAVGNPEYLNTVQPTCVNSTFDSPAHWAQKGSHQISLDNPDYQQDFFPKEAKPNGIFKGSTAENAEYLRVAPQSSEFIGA
UniProt P00533, with tags, fused parts or gaps DEL746-750/C797S limits assumed: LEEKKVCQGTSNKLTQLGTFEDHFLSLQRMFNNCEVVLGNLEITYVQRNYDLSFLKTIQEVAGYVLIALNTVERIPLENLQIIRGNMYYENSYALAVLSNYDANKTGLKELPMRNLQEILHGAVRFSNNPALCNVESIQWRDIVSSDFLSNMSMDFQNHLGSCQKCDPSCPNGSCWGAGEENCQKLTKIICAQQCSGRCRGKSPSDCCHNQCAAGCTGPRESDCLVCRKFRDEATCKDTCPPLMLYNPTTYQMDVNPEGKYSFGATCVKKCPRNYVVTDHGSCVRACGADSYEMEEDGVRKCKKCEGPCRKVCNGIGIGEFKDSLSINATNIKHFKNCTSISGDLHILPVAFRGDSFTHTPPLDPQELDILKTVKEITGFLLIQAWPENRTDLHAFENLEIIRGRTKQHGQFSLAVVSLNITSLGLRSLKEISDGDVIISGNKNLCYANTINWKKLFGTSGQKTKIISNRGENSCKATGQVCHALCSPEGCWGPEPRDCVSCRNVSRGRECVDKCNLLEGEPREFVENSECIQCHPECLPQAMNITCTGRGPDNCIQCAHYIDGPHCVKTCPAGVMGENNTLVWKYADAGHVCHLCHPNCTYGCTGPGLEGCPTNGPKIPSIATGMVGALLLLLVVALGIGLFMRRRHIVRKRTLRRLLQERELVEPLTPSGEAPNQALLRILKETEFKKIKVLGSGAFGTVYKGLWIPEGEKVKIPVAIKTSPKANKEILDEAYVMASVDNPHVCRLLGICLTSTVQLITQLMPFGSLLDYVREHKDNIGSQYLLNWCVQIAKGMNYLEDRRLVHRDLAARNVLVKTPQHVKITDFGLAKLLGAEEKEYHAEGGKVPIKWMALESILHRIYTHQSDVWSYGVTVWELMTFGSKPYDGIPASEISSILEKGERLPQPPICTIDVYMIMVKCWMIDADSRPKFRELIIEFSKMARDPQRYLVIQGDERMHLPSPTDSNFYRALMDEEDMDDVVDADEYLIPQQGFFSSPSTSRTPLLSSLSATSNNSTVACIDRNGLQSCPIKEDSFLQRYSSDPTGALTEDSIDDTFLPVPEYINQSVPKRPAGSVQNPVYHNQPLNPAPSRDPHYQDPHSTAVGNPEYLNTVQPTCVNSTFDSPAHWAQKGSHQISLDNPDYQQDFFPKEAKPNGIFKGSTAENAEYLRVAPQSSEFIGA
UniProt P00533, with tags, fused parts or gaps DEL746-750/T790M/C797S limits assumed: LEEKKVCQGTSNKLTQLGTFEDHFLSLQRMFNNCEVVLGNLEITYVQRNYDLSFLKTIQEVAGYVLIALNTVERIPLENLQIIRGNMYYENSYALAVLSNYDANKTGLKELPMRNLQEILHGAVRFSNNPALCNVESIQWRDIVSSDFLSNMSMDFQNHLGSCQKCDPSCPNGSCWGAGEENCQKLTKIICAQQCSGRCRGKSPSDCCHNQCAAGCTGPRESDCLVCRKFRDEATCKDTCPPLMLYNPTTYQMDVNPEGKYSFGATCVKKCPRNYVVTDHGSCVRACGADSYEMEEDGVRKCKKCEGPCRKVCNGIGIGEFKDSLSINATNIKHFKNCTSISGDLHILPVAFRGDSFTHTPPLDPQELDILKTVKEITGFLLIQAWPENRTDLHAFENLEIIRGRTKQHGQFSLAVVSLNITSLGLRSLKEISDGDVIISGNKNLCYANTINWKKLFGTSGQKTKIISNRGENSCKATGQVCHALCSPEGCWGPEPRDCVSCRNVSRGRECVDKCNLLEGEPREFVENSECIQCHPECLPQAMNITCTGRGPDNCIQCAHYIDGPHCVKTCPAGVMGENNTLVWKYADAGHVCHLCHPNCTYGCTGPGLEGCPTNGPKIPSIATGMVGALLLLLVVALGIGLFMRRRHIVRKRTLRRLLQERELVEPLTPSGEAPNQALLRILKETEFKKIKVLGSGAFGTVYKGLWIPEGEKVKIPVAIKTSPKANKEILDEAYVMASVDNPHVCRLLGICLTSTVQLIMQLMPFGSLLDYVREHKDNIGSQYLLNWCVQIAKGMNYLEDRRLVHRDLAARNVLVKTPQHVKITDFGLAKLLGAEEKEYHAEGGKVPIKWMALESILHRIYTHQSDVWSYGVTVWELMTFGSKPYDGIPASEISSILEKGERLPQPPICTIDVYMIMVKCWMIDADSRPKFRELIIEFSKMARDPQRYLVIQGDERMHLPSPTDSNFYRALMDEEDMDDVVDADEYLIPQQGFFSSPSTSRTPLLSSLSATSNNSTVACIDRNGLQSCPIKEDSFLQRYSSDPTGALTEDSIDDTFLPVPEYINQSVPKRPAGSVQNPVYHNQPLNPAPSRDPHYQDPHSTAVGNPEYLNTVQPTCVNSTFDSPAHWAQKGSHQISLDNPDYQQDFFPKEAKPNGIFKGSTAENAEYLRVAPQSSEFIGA
UniProt P00533, 25-1210 limits assumed: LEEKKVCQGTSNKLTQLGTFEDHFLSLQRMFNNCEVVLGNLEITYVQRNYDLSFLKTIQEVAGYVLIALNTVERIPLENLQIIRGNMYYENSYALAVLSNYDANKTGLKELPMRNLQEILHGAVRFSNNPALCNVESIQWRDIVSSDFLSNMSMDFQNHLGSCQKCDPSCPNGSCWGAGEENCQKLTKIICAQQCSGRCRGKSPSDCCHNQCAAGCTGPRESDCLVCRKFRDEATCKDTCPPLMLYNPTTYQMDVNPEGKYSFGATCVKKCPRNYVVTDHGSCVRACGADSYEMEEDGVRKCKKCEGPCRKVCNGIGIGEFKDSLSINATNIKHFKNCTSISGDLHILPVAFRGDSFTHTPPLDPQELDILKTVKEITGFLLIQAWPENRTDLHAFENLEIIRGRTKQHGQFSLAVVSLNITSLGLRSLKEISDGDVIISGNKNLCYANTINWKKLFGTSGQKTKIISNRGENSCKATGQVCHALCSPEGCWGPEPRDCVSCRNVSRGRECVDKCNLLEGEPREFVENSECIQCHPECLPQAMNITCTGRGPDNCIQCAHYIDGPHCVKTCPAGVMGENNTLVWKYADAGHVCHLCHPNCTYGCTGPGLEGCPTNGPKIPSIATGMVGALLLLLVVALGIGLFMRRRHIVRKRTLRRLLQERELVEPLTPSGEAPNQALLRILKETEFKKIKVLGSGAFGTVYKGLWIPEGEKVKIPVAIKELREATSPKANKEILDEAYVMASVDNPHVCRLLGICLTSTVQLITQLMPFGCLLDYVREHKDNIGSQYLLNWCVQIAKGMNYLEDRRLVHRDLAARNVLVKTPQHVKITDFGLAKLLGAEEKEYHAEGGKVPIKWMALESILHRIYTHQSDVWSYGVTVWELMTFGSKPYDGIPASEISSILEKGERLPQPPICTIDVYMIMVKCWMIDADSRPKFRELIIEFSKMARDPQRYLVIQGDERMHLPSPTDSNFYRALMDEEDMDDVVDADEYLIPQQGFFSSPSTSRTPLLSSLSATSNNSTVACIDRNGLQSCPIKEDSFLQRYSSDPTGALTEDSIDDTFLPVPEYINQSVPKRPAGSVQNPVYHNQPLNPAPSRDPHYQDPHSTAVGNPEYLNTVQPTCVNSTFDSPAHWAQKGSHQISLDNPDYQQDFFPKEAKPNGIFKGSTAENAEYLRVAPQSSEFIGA
UniProt P06239, whole entry: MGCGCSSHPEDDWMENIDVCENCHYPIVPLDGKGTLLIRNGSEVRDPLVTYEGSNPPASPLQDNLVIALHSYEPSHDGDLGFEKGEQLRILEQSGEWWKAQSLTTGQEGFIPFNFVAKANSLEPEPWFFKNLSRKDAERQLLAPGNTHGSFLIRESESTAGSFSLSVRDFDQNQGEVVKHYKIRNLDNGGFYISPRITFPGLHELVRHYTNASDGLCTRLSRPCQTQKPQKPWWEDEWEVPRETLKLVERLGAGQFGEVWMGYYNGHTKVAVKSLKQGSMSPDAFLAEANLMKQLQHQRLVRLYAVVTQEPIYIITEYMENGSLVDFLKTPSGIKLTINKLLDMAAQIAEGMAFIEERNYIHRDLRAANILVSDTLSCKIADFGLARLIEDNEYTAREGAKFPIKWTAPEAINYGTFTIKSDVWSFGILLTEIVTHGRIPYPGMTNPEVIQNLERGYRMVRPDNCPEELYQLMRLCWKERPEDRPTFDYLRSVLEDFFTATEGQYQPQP

Cc1nn(C)c2c1-c1nccc(n1)Nc1cc(c(C#Cc3cnn(C)c3)cn1)N[C@@H](C)CCO2
IC50 ([1]; 1 mM ATP): < 10 nM | IC50 ([1]; ATP at Km): < 10 nM | IC50 ([2]; 1 mM ATP): < 10 nM | IC50 ([2]; ATP at Km): < 10 nM | IC50 ([3]; 1 mM ATP): < 10 nM | IC50 ([3]; ATP at Km): < 10 nM | IC50 ([4]; 1 mM ATP): 10 to 100 nM | IC50 ([4]; ATP at Km): < 10 nM | IC50 [5]: < 10 nM | IC50 ([6]; 1 mM ATP): > 10000 nM | IC50 ([6]; ATP at Km): 8820 nM | IC50 ([7]; 1 mM ATP): > 10000 nM | IC50 ([7]; ATP at Km): > 10000 nM | IC50 ([8]; 1 mM ATP): > 10000 nM | IC50 ([8]; ATP at Km): 706 nM | IC50 ([9]; 1 mM ATP): 95.1 nM | IC50 ([9]; ATP at Km): 21.2 nM | IC50 ([10]; 1 mM ATP): > 10000 nM | IC50 ([10]; ATP at Km): > 10000 nM

Cc1nn(C)c2c1-c1nccc(n1)Nc1cc(c(C#Cc3cnn(CC(F)(F)F)c3)cn1)N[C@@H](C)CCO2
IC50 ([1]; 1 mM ATP): < 10 nM | IC50 ([1]; ATP at Km): < 10 nM | IC50 ([2]; 1 mM ATP): < 10 nM | IC50 ([2]; ATP at Km): < 10 nM | IC50 ([3]; 1 mM ATP): 10 to 100 nM | IC50 ([3]; ATP at Km): < 10 nM | IC50 ([4]; 1 mM ATP): 100 to 1000 nM | IC50 ([4]; ATP at Km): 10 to 100 nM | IC50 [5]: 10 to 100 nM | IC50 ([6]; 1 mM ATP): > 10000 nM | IC50 ([6]; ATP at Km): > 10000 nM | IC50 ([7]; 1 mM ATP): > 10000 nM | IC50 ([7]; ATP at Km): > 10000 nM | IC50 ([8]; 1 mM ATP): > 10000 nM | IC50 ([8]; ATP at Km): 2120 nM | IC50 ([9]; 1 mM ATP): 52 nM | IC50 ([9]; ATP at Km): 19.6 nM | IC50 ([10]; 1 mM ATP): > 10000 nM | IC50 ([10]; ATP at Km): > 10000 nM

Cc1nn(C)c2c1-c1nccc(n1)Nc1cc(c(C#Cc3cnn(C)c3C3CC3)cn1)N[C@@H](C)CCO2
IC50 ([1]; 1 mM ATP): < 10 nM | IC50 ([1]; ATP at Km): < 10 nM | IC50 ([2]; 1 mM ATP): 10 to 100 nM | IC50 ([2]; ATP at Km): < 10 nM | IC50 ([3]; 1 mM ATP): < 10 nM | IC50 ([3]; ATP at Km): < 10 nM | IC50 ([4]; 1 mM ATP): 100 to 1000 nM | IC50 ([4]; ATP at Km): 10 to 100 nM | IC50 [5]: < 10 nM | IC50 ([6]; 1 mM ATP): > 10000 nM | IC50 ([6]; ATP at Km): > 10000 nM | IC50 ([7]; 1 mM ATP): > 10000 nM | IC50 ([7]; ATP at Km): > 10000 nM | IC50 ([8]; 1 mM ATP): > 10000 nM | IC50 ([8]; ATP at Km): > 10000 nM | IC50 ([9]; 1 mM ATP): 37.4 nM | IC50 ([9]; ATP at Km): 12.2 nM | IC50 ([10]; 1 mM ATP): > 10000 nM | IC50 ([10]; ATP at Km): > 10000 nM

COc1nn(C)cc1C#Cc1cnc2cc1NCC[C@H](C)Oc1c(c(C)nn1C)-c1nccc(n1)N2
IC50 ([1]; 1 mM ATP): < 10 nM | IC50 ([1]; ATP at Km): < 10 nM | IC50 ([2]; 1 mM ATP): < 10 nM | IC50 ([2]; ATP at Km): < 10 nM | IC50 ([3]; 1 mM ATP): < 10 nM | IC50 ([3]; ATP at Km): < 10 nM | IC50 ([4]; 1 mM ATP): 10 to 100 nM | IC50 ([4]; ATP at Km): < 10 nM | IC50 [5]: < 10 nM

Cc1nn(C(F)(F)F)c(C)c1C#Cc1cnc2cc1N[C@@H](C)CCOc1c(c(C)nn1C)-c1nccc(n1)N2
IC50 ([1]; 1 mM ATP): 100 to 1000 nM | IC50 ([1]; ATP at Km): 10 to 100 nM | IC50 ([2]; 1 mM ATP): > 1000 nM | IC50 ([2]; ATP at Km): 10 to 100 nM | IC50 ([3]; 1 mM ATP): 100 to 1000 nM | IC50 ([3]; ATP at Km): 100 to 1000 nM | IC50 ([4]; 1 mM ATP): > 1000 nM | IC50 ([4]; ATP at Km): 10 to 100 nM | IC50 [5]: 100 to 1000 nM

C[C@H]1CCOc2c(cnn2C)-c2nccc(n2)Nc2cc(c(C#Cc3cnn(C(F)(F)F)c3)cn2)N1
IC50 ([1]; 1 mM ATP): < 10 nM | IC50 ([1]; ATP at Km): < 10 nM | IC50 ([2]; 1 mM ATP): < 10 nM | IC50 ([2]; ATP at Km): < 10 nM | IC50 ([3]; 1 mM ATP): 100 to 1000 nM | IC50 ([3]; ATP at Km): 10 to 100 nM | IC50 ([4]; 1 mM ATP): 100 to 1000 nM | IC50 ([4]; ATP at Km): < 10 nM | IC50 [5]: 10 to 100 nM
